From patent US20260382582A1, “G-PROTEIN COUPLED RECEPTOR ANTAGONIST” (published 2026)

By UniProt entry, the sequences of proteins in these tests, tags left out.
UniProt Q96LA9, whole entry: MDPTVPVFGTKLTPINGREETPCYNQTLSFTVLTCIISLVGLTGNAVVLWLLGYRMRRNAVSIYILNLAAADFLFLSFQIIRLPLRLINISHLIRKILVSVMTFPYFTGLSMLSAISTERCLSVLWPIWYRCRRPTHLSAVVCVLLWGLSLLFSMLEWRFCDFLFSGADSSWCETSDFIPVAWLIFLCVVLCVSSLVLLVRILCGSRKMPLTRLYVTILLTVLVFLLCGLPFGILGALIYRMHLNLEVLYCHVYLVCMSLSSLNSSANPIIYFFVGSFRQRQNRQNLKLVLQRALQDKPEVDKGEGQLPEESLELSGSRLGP
UniProt Q96LB1, whole entry: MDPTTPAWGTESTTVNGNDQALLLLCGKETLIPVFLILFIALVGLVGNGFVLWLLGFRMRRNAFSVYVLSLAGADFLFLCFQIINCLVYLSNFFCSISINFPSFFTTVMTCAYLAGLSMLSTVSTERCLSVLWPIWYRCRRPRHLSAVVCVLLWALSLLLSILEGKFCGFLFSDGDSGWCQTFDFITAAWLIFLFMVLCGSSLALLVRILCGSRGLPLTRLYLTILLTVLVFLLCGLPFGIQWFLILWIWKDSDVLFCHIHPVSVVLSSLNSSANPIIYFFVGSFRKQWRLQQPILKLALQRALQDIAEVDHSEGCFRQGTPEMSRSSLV

Tests used:
MRGPRX4 = MRGPRX4 (Homo sapiens, UniProt Q96LA9); assay: MRGPRX4 activity assay, antagonism versus deoxycholic acid (DCA), IP-One Gq HTRF; settings: read-out: MRGPRX4 antagonist activity; SH-4 cells, versus 30 μM DCA agonist; Table 3
[1] = In vivo PK, male C57BL/6 mice (Table 2)
MRGPRX2 = MRGPRX2 (Homo sapiens, UniProt Q96LB1); assay: MRGPRX2 selectivity assay, antagonism versus Substance P, IP-One Gq HTRF in CHO-K1/MRGPRX2 cells; settings: read-out: MRGPRX2 activity IC50; versus 10 μM Substance P; N1; Table 4

| Compound | IC50 (MRGPRX4) [nM] | other results |
| --- | --- | --- |
| Cc1cc(-c2nnn[nH]2)cc(C2Cc3cc(C(F)(F)F)ccc3O2)c1 (stereo not shown) | < 100 |  |
| Fc1c(-c2nnn[nH]2)cccc1C1Cc2cc(C(F)(F)F)ccc2O1 (stereo not shown) | < 100 |  |
| Nc1c(-c2nnn[nH]2)cccc1C1Cc2cc(C(F)(F)F)ccc2O1 (stereo not shown) | 100 to 500 |  |
| O=C(O)c1cccc(COc2ccc(C(F)(F)F)cc2Cl)c1F |  | IV CL ([1]; IV 1 mg/kg): 0.27 mL/min/kg; IV Vd ([1]; IV 1 mg/kg): 0.63 L/kg; % F ([1]; IV 1 mg/kg, PO 10 mg/kg): 113%; PO AUC0-t ([1]; PO 10 mg/kg): 354,520 ng-hr/ml; PO Cmax ([1]; PO 10 mg/kg): 29,212 ng/ml; PO T½ ([1]; PO 10 mg/kg): 27 h |
| Cc1cc(-c2nnn[nH]2)cc([C@@H]2Cc3cc(C(F)(F)F)ccc3O2)c1 (single isomer, unassigned) | 500 to 1000 |  |
| Cc1cc(-c2nnn[nH]2)cc([C@H]2Cc3cc(C(F)(F)F)ccc3O2)c1 (single isomer, unassigned) | 100 to 500 |  |
| Cc1cc(-c2nnn[nH]2)nc([C@@H]2Cc3cc(C(F)(F)F)ccc3O2)c1 (single isomer, unassigned) | 100 to 500 |  |
| Cc1cc(-c2nnn[nH]2)nc([C@H]2Cc3cc(C(F)(F)F)ccc3O2)c1 (single isomer, unassigned) | > 3000 |  |
| Cc1cc(-c2noc(=O)[nH]2)nc([C@@H]2Cc3cc(C(F)(F)F)ccc3O2)c1 (single isomer, unassigned) | 100 to 500 |  |
| Cc1cc(-c2noc(=O)[nH]2)nc([C@H]2Cc3cc(C(F)(F)F)ccc3O2)c1 (single isomer, unassigned) | > 3000 |  |
| Cc1cc2c(cc1Cl)C[C@@H](c1cccc(-c3nnn[nH]3)c1)O2 (single isomer, unassigned) | 100 to 500 |  |
| Cc1cc2c(cc1Cl)C[C@H](c1cccc(-c3nnn[nH]3)c1)O2 (single isomer, unassigned) | 100 to 500 |  |
| Clc1cc2c(cc1Cl)OC(c1cccc(-c3nnn[nH]3)c1)C2 (single isomer, unassigned) | 500 to 1000 |  |
| Clc1cc2c(cc1Cl)O[C@@H](c1cccc(-c3nnn[nH]3)c1)C2 (single isomer, unassigned) | 100 to 500 |  |
| FC(F)(F)c1cc(Cl)c2c(c1)C[C@@H](c1cccc(-c3nnn[nH]3)c1)O2 (single isomer, unassigned) | < 100 |  |
| FC(F)(F)c1cc(Cl)c2c(c1)C[C@@H](c1cccc(-c3nnn[nH]3)n1)O2 (single isomer, unassigned) | < 100 |  |
| FC(F)(F)c1cc(Cl)c2c(c1)C[C@H](c1cccc(-c3nnn[nH]3)c1)O2 (single isomer, unassigned) | 100 to 500 |  |
| FC(F)(F)c1cc(Cl)c2c(c1)C[C@H](c1cccc(-c3nnn[nH]3)n1)O2 (single isomer, unassigned) | 1000 to 3000 |  |
| FC(F)(F)c1ccc2c(c1)C[C@@H](c1cccc(-c3nnn[nH]3)c1)O2 (single isomer, unassigned) | < 100 |  |
| FC(F)(F)c1ccc2c(c1)C[C@@H](c1cccc(-c3nnn[nH]3)n1)O2 (single isomer, unassigned) | 1000 to 3000 |  |
| FC(F)(F)c1ccc2c(c1)C[C@H](c1cccc(-c3nnn[nH]3)c1)O2 (single isomer, unassigned) | 1000 to 3000 |  |
| FC(F)(F)c1ccc2c(c1)C[C@H](c1cccc(-c3nnn[nH]3)n1)O2 (single isomer, unassigned) | < 100 |  |
| Fc1c(-c2nnn[nH]2)cccc1[C@@H]1Cc2cc(C(F)(F)F)ccc2O1 (single isomer, unassigned) | < 100 |  |
| Fc1c(-c2nnn[nH]2)cccc1[C@H]1Cc2cc(C(F)(F)F)ccc2O1 (single isomer, unassigned) | 1000 to 3000 |  |
| Fc1cc2c(cc1Cl)C[C@@H](c1cccc(-c3nnn[nH]3)c1)O2 (single isomer, unassigned) | < 100 |  |
| Fc1cc2c(cc1Cl)C[C@@H](c1cccc(-c3nnn[nH]3)n1)O2 (single isomer, unassigned) | < 100 |  |

| Compound | IC50 (MRGPRX4) [nM] | other results |
| --- | --- | --- |
| Fc1cc2c(cc1Cl)C[C@H](c1cccc(-c3nnn[nH]3)c1)O2 (single isomer, unassigned) | 100 to 500 |  |
| Fc1cc2c(cc1Cl)C[C@H](c1cccc(-c3nnn[nH]3)n1)O2 (single isomer, unassigned) | 500 to 1000 |  |
| N#Cc1cc(-c2nnn[nH]2)cc(C2Cc3cc(C(F)(F)F)ccc3O2)c1 (single isomer, unassigned) | 100 to 500 |  |
| N#Cc1cc(-c2nnn[nH]2)cc([C@H]2Cc3cc(C(F)(F)F)ccc3O2)c1 (single isomer, unassigned) | < 100 |  |
| N#Cc1cc(-c2noc(=O)[nH]2)cc([C@@H]2Cc3cc(C(F)(F)F)ccc3O2)c1 (single isomer, unassigned) | < 100 | IC50 (MRGPRX2): > 10000 nM |
| N#Cc1cc(-c2noc(=O)[nH]2)cc([C@@H]2Cc3cc(Cl)c(F)cc3O2)c1 (single isomer, unassigned) | < 100 | IC50 (MRGPRX2): > 10000 nM |
| N#Cc1cc(-c2noc(=O)[nH]2)cc([C@H]2Cc3cc(C(F)(F)F)ccc3O2)c1 (single isomer, unassigned) | 1000 to 3000 |  |
| N#Cc1cc(-c2noc(=O)[nH]2)cc([C@H]2Cc3cc(Cl)c(F)cc3O2)c1 (single isomer, unassigned) | 100 to 500 |  |
| O=C(O)c1cccc([C@@H]2Cc3cc(C(F)(F)F)ccc3O2)c1 (single isomer, unassigned) | > 3000 |  |
| O=C(O)c1cccc([C@@H]2Cc3cc(Cl)c(F)cc3O2)c1 (single isomer, unassigned) | 1000 to 3000 |  |
| O=C(O)c1cccc([C@H]2Cc3cc(C(F)(F)F)ccc3O2)c1 (single isomer, unassigned) | 100 to 500 |  |
| O=C(O)c1cccc([C@H]2Cc3cc(Cl)c(F)cc3O2)c1 (single isomer, unassigned) | 100 to 500 |  |
| O=c1[nH]c(-c2cccc([C@@H]3Cc4cc(C(F)(F)F)ccc4O3)c2)no1 (single isomer, unassigned) | 100 to 500 |  |
| O=c1[nH]c(-c2cccc([C@@H]3Cc4cc(C(F)(F)F)ccc4O3)n2)no1 (single isomer, unassigned) | < 100 |  |
| O=c1[nH]c(-c2cccc([C@@H]3Cc4cc(Cl)c(F)cc4O3)c2)no1 (single isomer, unassigned) | < 100 |  |
| O=c1[nH]c(-c2cccc([C@H]3Cc4cc(C(F)(F)F)ccc4O3)c2)no1 (single isomer, unassigned) | > 3000 |  |
| O=c1[nH]c(-c2cccc([C@H]3Cc4cc(C(F)(F)F)ccc4O3)c2F)no1 (single isomer, unassigned) | 1000 to 3000 |  |
| O=c1[nH]c(-c2cccc([C@H]3Cc4cc(C(F)(F)F)ccc4O3)n2)no1 (single isomer, unassigned) | > 3000 |  |
| O=c1[nH]c(-c2cccc([C@H]3Cc4cc(Cl)c(F)cc4O3)c2)no1 (single isomer, unassigned) | 1000 to 3000 |  |
| O=c1[nH]c(-c2cccc([C@H]3Cc4cc(Cl)c(F)cc4O3)c2F)no1 (single isomer, unassigned) | > 3000 |  |
| O=c1[nH]c(-c2cccc([C@H]3Cc4cc(Cl)c(F)cc4O3)n2)no1 (single isomer, unassigned) | > 3000 |  |
| Oc1c(-c2nnn[nH]2)cccc1[C@@H]1Cc2cc(C(F)(F)F)ccc2O1 (single isomer, unassigned) | > 3000 |  |
| Oc1c(-c2nnn[nH]2)cccc1[C@H]1Cc2cc(C(F)(F)F)ccc2O1 (single isomer, unassigned) | 500 to 1000 |  |
| (S)-1-methyl-5-(3-(5-(trifluoromethyl)-2,3-dihydrobenzofuran-2-yl) phenyl)-1H-1,2,3-triazole | > 3000 |  |
| m-(5-chloro-2,3-dihydro-1-benzofuran-2-yl) benzoic acid | 1000 to 3000 |  |
